In patent US20150368338A1 (Janssen / Centocor, published 2015):
Substitutions are numbered along the chain they refer to. One block for each binder: values may come before it.

Legend:
[1] = target: T1, IFN-αB2 (human, UniProt P32881 24-189); assay: cell-based or functional assay
[2] = target: T1, IFN-αB2; assay: ProteOn SPR, cell supernatant;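 note: each binding measurement used just a single antigen concentration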
[3] = target: IFN-αB2 (human, UniProt P32881 24-189); assay: cell-based or functional assay; remark: listed apart in the source
[4] = target: T2, IFN-αB2 (human, UniProt P32881 24-189); assay: ProteOn, one antigen concentration
T2 construct: also called IFN-α8; IFN alpha B2

[5] = target: T3, IFN-αC (human, UniProt P01566 24-189); assay: ProteOn, one antigen concentration
T3 construct: also called IFN-α10; alpha C

[6] = target: T4, IFN-αC (human, UniProt P01566 24-189); assay: ProteOn SPR, cell supernatant;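 note: each binding measurement used just a single antigen concentration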
T4 construct: Recombinant, HEK293; also called IFN-α10

[7] = target: T5, IFN-αF (human, UniProt P01568 24-189); assay: ProteOn, one antigen concentration
T5 construct: also called IFN-α21; alpha F
T5 chain: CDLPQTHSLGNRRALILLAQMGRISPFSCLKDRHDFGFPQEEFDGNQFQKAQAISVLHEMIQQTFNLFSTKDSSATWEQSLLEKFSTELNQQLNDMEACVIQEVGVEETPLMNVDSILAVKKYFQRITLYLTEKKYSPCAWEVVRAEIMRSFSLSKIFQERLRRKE

B1: IFWM3400 (antibody, IgG1, V domains shown)
VH: EVQLVQSGAEVKKPGESLKISCKGSGYSFTSYWIGWVRQMPGKGLEWMGIIDPSDSDTRYSPSFQGQVTISADKSISTAYLQWSSLKASDTAMYYCARHPGLAWAPDFDYWGQGTLVTVSS
VL: DIQMTQSPSSLSASVGDRVTITCRASQSIADFLNWYQQKPGKAPKLLIYFASSLQSGVPSRFSGSGSGTDFTLTISSLQPEDFATYYCQQSHSFPLTFGQGTKVEIK
notes: mAb; IgG1/kappa said of the parent and of selected mAbs; also called IFWB3135
IC50, ISRE assay [1]: 0.086 nM
Kd [2]: 0.032 nM

B3: IFWM3405 (antibody, IgG1, V domains shown)
VH: B1 VH
VL: DIQMTQSPSSLSASVGDRVTITCRASQSIANNNLNWYQQKPGKAPKLLIHWASSLQSGVPSRFSGSGSGTDFTLTISSLQPEDFATYYCQQGYDTPFTFGQGTKVEIK
notes: mAb; IgG1/kappa said of the parent and of selected mAbs; also called IFWB3140
IC50, ISRE assay [1]: 0.099 nM
Kd [2]: 0.017 nM

B5: IFWM3323 (antibody, V domains shown)
VH: B1 VH with A103N
VL: B1 VL with A30T, D31N, F32H, S91A, S93N
notes: VH IFWH591, VL IFWL1053; converted mAb; also called IFWB3058
Kd [4]: 0.077 nM
Kd [5]: 0.077 nM

B7: IFWM3401 (antibody, IgG1, V domains shown)
VH: B1 VH
VL: B1 VL with A30T, D31N, F32H, S91A, S93N
notes: mAb; IgG1/kappa said of the parent and of selected mAbs; also called IFWB3136
Kd [6]: 0.042 nM
Kd [2]: 0.042 nM

B8: IFWM3307 (antibody, V domains shown)
VH: B1 VH with A103N
VL: B1 VL with A30G, S91A, H92L, S93D
notes: VH IFWH591, VL IFWL1001; converted mAb; also called IFWB3042
Kd [4]: 0.055 nM
Kd [7]: 0.055 nM

B9: IFWM3312 (antibody, V domains shown)
VH: B1 VH with A103N
VL: B1 VL with A30D, D31G, F32A, H92F, S93D
notes: VH IFWH591, VL IFWL1010; converted mAb; also called IFWB3047
Kd [4]: 0.022 nM
Kd [5]: 0.022 nM

B10: IFWM3313 (antibody, V domains shown)
VH: B1 VH with A103N
VL: B1 VL with A30N, D31N, H92F, S93N, F94L, L96I
notes: VH IFWH591, VL IFWL1013; converted mAb; also called IFWB3048
Kd [4]: 0.074 nM
Kd [5]: 0.074 nM

The remaining lines, values ahead:

IC50, ISRE reporter gene assay [3]: 0.025 nM
B2: IFWM3525 (antibody, IgG1, V domains shown)
VH: B1 VH with A103N
VL: B3 VL with A30D, N32S, N33Y, H50Y, W51G, T95F, F97L

IC50, ISRE reporter gene assay [3]: 0.096 nM
B4: IFWM3522 (antibody, IgG1, V domains shown)
VH: B1 VH with A103N
VL: B1 VL with A30E, D31G, F32A, S91A, H92Y, S93D

IC50, ISRE assay [1]: 0.211 nM
Kd [2]: 0.059 nM
B6: IFWM3410 (antibody, IgG1, V domains shown)
VH: B1 VH
VL: B3 VL with N32T, G92W, T95N, F97L
notes: mAb; IgG1/kappa said of the parent and of selected mAbs; also called IFWB3145

IC50, ISRE assay [1]: 0.25 nM
Kd [2]: 0.037 nM
B11: IFWM3416 (antibody, IgG1, V domains shown)
VH: B1 VH
VL: B3 VL with A30R, N32T
notes: mAb; IgG1/kappa said of the parent and of selected mAbs; also called IFWB3151
